The results in this text go back to paper PMC5618341, “Controlled inhibition of methyltransferases using photoswitchable peptidomimetics: towards an epigenetic regulation of leukemia” (Chemical Science, 2017).

As a reminder, the IC50 is the concentration that gives 50% inhibition. Broadly, the Ki is a dissociation constant, usually derived from enzyme kinetics or from competition with a known ligand.

Like-named read-outs stand apart in the source and are kept apart here.

The target of this assay is T1, WDR5Δ23 (Homo sapiens, UniProt P61964).
T1 construct: His6-SUMO (N, cleaved yes); made in house; host or cells: E. coli DH5α (so in the source)
The experiment in a line: Fluorescence polarization (FP)-based competitive binding assay. Background: Fluorescence polarisation rises when a labelled molecule tumbles more slowly, as on binding a larger partner.

Regarding `CC(C)C[C@H](NC(=O)[C@H](Cc1cnc[nH]1)NC(=O)[C@@H](NC(=O)[C@H](CCC(=O)O)NC(=O)[C@H](C)NC(=O)[C@H](CCCN=C(N)N)NC(=O)[C@H](C)NC(=O)[C@@H](N)CO)C(C)C)C(=O)N[C@@H](CCCN=C(N)N)C(=O)N[C@@H](CCCCN)C(=O)N[C@@H](CO)C(N)=O` [peptide 3, reference compound], the IC50 by setting is: (non-irradiated peptide (trans isomer), 72 nM WDR5Δ23, 20 nM tracer 22, read-out: IC50, non-irradiated (trans)) 1.34 ± 0.062 µM; (peptide irradiated at 430 nm, 20 nM tracer, read-out: IC50 (irr. at 430 nm)) 1.43 ± 0.43 µM. Further, under “peptide irradiated at 430 nm, 20 nM tracer, read-out: Ki (irr. at 430 nm)”, the Ki came out at 0.0238 ± 0.00616 µM.
